{"source": "patent US20170260285A1", "about": "“METHODS FOR TREATING CANCER” (UNIVERSITY OF IOWA RESEARCH FOUNDATION, priority 2014, published 2017)", "key": {"SQ20B xenograft tumors": {"test_system": "SQ20B xenograft tumors", "assay": "HNSCC xenograft tumor growth in nude mice", "format": "in vivo, athymic nu/nu mice", "conditions": "EGFRI combined with IL-1α blockade (neutralizing IL-1α antibody)", "experimental": "Clonogenic survival was determined as previously described (17). Individual assays were performed with multiple dilutions with at least four cloning dishes per data point, repeated in at least 3 separate experiments. Tumor cell implantation: Female 4-5 week old athymic-nu/nu nude mice were purchased from Harlan Laboratories (Indianapolis, IN). Mice were housed in a pathogen-free barrier room in the Animal Care Facility at the University of Iowa and handled using aseptic procedures. All procedures were approved by the IACUC committee of the University of Iowa and conformed to the guidelines established by the NIH. […]\n(§1) Mice started drug treatment 1 week after tumor inoculation. […] Mice were evaluated daily and tumor measurements taken three times per week using Vernier calipers. Tumor volumes were calculated using the formula: tumor volume=(length×width^2)/2 where the length was the longest dimension, and width was the dimension perpendicular to length. […]\nas §1"}, "HNSCC tumor cell lines": {"test_system": "HNSCC tumor cell lines", "conditions": "previous studies (ref. 10); cited from earlier work"}}}
{"substance": "cetuximab", "values": [{"measurement": "anti-tumor activity in vivo with IL-1α blockade", "setting": "SQ20B xenograft tumors", "value": "significantly increased"}, {"measurement": "IL-6 expression/secretion in HNSCC cell lines treated with EGFRIs", "setting": "HNSCC tumor cell lines", "value": "significant upregulation"}]}
